Data from patent US6841684B2, “Imidiazoles having reduced side effects” (Allergan, Inc., priority 1997, dated 2005).

The chains behind the UniProt entries cited, without tags or fusion partners.
UniProt P19328, whole entry: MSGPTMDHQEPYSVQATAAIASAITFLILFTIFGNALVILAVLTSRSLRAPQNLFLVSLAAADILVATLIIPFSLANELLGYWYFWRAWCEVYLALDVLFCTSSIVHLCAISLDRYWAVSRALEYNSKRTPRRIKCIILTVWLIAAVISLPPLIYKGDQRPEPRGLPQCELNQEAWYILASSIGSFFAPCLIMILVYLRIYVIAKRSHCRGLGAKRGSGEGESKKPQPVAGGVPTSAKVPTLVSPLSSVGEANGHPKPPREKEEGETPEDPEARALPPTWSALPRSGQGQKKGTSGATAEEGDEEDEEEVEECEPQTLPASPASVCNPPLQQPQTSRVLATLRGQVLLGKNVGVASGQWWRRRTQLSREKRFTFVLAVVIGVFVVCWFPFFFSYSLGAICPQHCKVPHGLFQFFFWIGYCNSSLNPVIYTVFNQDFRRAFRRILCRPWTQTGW

Columns and labels:
[1] = biological target: T1, rat α2B (RNG gene) receptor (Rattus norvegicus, UniProt P19328); assay: RSAT (Receptor Selection and Amplification Technology) assay, alpha 2B; format: cell-based; settings: ratio of maximal effect to that of standard full agonist oxymetazoline
T1 construct: expressed in transfected cells; host or cells: NIH-3T3 cells, calcium phosphate cotransfection
Description: This preferential activity can be determined in a variety of functional assays such as Cyclic AMP Production, Shimizu et al, J. Neurochem. […] In the study below, the RSAT assay on cells that have been transiently transfected with the human α2A (c10 gene), rat α2B (RNG gene) and human α2C (c4 gene) receptors was used.
The assay measures a receptor-mediated loss of contact inhibition that results in selective proliferation of receptor-containing cells in a mixed population of confluent cells. The increase in cell number is assessed with an appropriate transfected marker gene such as b-galactosidase, the activity of which can be easily measured in a 96-well format. Receptors that activate the G protein, Gq, elicit this response. Alpha2 receptors, which normally couple to Gi, activate the RSAT response when coexpressed with a hybrid Gq protein that has a Gi receptor recognition domain, called Gq/i5^2.
NIH-3T3 cells are plated at a density of 2×10^6 cells in 15 cm dishes and maintained in Dulbecco's modified Eagle's medium supplemented with 10% calf serum. One day later, cells are cotransfected by calcium phosphate precipitation with mammalian expression plasmids encoding p-SV-b-galactosidase (5-10 mg), receptor (1-2 mg) and G protein (1-2 mg). 40 mg salmon sperm DNA may also be included in the transfection mixture. Fresh media is added on the following day and 1-2 days later, cells are harvested and frozen in 50 assay aliquots. […] After washing with phosphate-buffered saline, b-galactosidase enzyme activity is determined by adding 200 ml of the chromogenic substrate (consisting of 3.5 mM o-nitrophenyl-b-D-galactopyranoside and 0.5% nonidet P-40 in phosphate buffered saline), incubating overnight at 30° and measuring optical density at 420 nm. […] The EC50 and maximal effect of each drug at each alpha2 receptor is determined. The efficacy or intrinsic activity is calculated as a ratio of the maximal effect of the drug to the maximal effect of a standard full agonist for each receptor subtype.

[2] = tested on: cynomolgus monkeys with sustained elevated IOP; assay: IOP lowering in conscious monkeys, eyes made hypertensive by argon laser photocoagulation; format: in vivo, cynomolgus monkey; settings: Macaca fascicularis, topical, 6 h, ocular dose 0.1%, single 50 μl eye drop, up to 6 hours; read-out: Maximum % Decrease From Pretreatment Levels Hypertensive Eye (IOP)
Description: Measurements of IOP were made in fully conscious female cynomolgus monkeys weighing 3-4 kg with sustained elevated IOP that was produced in the right eye by argon laser photocoagulation of the trabecular meshwork. Animals were usable for experiments 2 months following surgery. During the experiments, monkeys sat in specially designed chairs (Primate Products, San Francisco), and were fed orange juice and fruit as needed. A 30R model Digilab pneumatonometer (Alcon, Tex.) was used to measure IOP.
Twenty five μl of an anesthetic (proparacaine) was topically applied to each monkey before IOP measurements to minimize ocular discomfort due to tonometry. Two baseline measurements were made prior to instillation of the drugs, followed by periodic measurements up to 6 hours post-instillation. The test compounds were administered unilaterally as a single 50 μl eye drop; the contralateral eyes received an equal volume of saline.

Brc1c(NC2=NCCN2)ccc2nccnc12 [brimonidine, reference compound]
Intrinsic Activity Relative to Oxymetazoline, Alpha 2B [1]: 0.93

Clc1cccc(Cl)c1N=C1NCCN1 [clonidine, reference compound]
Intrinsic Activity Relative to Oxymetazoline, Alpha 2B [1]: 0.75 | inhibition in vivo at 0.1 % [2]: 25 ± 4%

Cc1cc(C(C)(C)C)c(O)c(C)c1CC1=NCCN1 [oxymetazoline, reference compound]
Intrinsic Activity Relative to Oxymetazoline, Alpha 2B [1]: 1.0
